Molecular target: MAO-B (Homo sapiens, UniProt P27338)
Experiment: hMAO-B inhibition, spectrophotometric assay

Sequences of proteins named here, by UniProt entry; tags and fusion partners are left off.
UniProt P27338, whole entry: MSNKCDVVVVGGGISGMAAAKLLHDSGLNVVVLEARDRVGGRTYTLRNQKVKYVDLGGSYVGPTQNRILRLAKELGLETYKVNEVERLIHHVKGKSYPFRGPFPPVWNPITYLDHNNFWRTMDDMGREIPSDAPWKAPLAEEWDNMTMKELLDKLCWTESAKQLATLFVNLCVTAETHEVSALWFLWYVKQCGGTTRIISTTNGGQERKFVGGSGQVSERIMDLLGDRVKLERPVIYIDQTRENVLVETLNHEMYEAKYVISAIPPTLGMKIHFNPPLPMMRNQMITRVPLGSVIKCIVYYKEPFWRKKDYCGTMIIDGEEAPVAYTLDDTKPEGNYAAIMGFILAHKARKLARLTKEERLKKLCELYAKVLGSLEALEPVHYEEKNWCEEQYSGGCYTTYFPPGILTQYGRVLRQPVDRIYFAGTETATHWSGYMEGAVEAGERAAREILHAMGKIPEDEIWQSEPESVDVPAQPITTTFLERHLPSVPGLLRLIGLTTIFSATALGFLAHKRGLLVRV

Q: What does the source list for `O=C1/C(=C/c2ccc(O)cc2)Oc2cc(O)ccc21` [Hispidol, hispidol, reference compound]?
A: IC50: > 10 µM; Selectivity index for inhibition of MAO-B (IC50 MAO-A divided by IC50 MAO-B): <0.53; inhibition at 10 µM (read-out: MAO-B % Inhibition): 34.6%
